For 1 substance, specific phosphatase activity of CaN against 4-MUP when CaM was pretreated with equivalent concentration of CaNp and specific phosphatase activity of CaN against 4-MUP with equivalent concentration of CaM (0.12 µM/h without CaM) results are on record in article PMC6151454.

The assay addresses Calcineurin (CaN) enzyme from bovine brain (bovine (endogenous in brain)) (UniProt P48452).

In the case of “Calmodulin (CaM), chicken, recombinant (from UniProt P62149 2-149) (natural protein)”, the specific phosphatase activity of CaN against 4-MUP when CaM was pretreated with equivalent concentration of CaNp worked out at 0.24 µM/h and the specific phosphatase activity of CaN against 4-MUP with equivalent concentration of CaM (0.12 µM/h without CaM) worked out at 0.83 µM/h.
